These results are taken from patent publication US20050163707A1, “Cancer treatment” (priority 2002, published 2005).

Molecules are shown by their SMILES.

For this test, the system named is HT29 colon tumour xenografts. Put plainly: Tumour volume tripling time of HT29 xenografts in nude mice after 90Y-hHMFG1 radioimmunotherapy and/or chemotherapy. The format is in vivo, mouse (human tumour xenograft). The conditions noted are these: Table 2, HT29 vincristine, Observer 2, control 10.7; 90Y-hHMFG1 1.4 MBq; vincristine 2 mg/kg; combinations 24 h apart. As to the method:
The human bladder tumour cell line, HT1376, and the human colon tumour cell line HT29 expressing polymorphic epithelial mucin (PEM) were cultured in RPMI 1640 tissue culture medium containing 100 U·ml^−1 penicillin and 100 μg·ml^−1 streptomycin, supplemented with 10% foetal calf serum in a humidified atmosphere of 5% carbon dioxide in air. HT1376 is a human bladder carcinoma cell line obtained from the European Collection of Animal Cell Cultures (ECACC no. 87032402). HT29 is human colon carcinoma cell line obtained from European Collection of Animal Cell Cultures (ECACC no. 91072201).
The fully humanised version of the anti-PEM antibody, HMFG1, was produced by Lonza, Slough, UK. This humanised HMFG1 (hHMFG1) was conjugated with the chelating agent […] by BioInvent, Sweden. […]
Approximately three weeks after tumour inoculation, when the tumours were around 0.2 cm^3 in volume (7-8 mm in diameter), mice were divided into treatment groups of 7-8 mice each. […] Tumour diameters (d1, d2 and d3) were measured twice weekly in three orthogonal directions using a vernier calliper and the tumour volume (v) calculated according to the formula for an ellipsoid: [formula]
Relative tumour volume (the volume of each tumour divided by the tumour volume on the day of treatment) was calculated to minimise the effect of variation in treatment volume of the individual tumours. […]

In the case of `CC[C@]1(O)C[C@H]2CN(CCc3c([nH]c4ccccc34)[C@@](C(=O)OC)(c3cc4c(cc3OC)N(C=O)[C@H]3[C@@](O)(C(=O)OC)[C@H](OC(C)=O)[C@]5(CC)C=CCN6CC[C@]43[C@@H]65)C2)C1` [vincristine, Vincristine], the “Median volume tripling time” value is 14.7 days.
